The values below are quoted from earlier work in patent US7354941B2, “Nicotinamide benzofused-heterocyclyl derivatives useful as selective inhibitors of PDE4 isozymes” (Pfizer Products Inc., priority 2000, dated 2008).

Series [1] relates to antigen-induced bronchoconstriction. Conditions: guinea pig, in vivo; cited from earlier work.
Series [2] relates to PDE4. As to conditions: cited from earlier work.

On to `COc1ccc(C(=O)Nc2c(Cl)cncc2Cl)c2cccnc12` [Example D4418], for which, in series [1], the “inhibition of antigen-induced early and late phase bronchoconstriction and BAL eosinophilia” value is on record as “active”. Also, the IC50 (commonly the midpoint of a concentration-inhibition curve) in series [2] is 200 nM.
